According to patent US4923892A, “Tricyclic aromatic compounds” (Burroughs Wellcome Co., priority 1985, dated 1990):

Tested on: histamine
Experiment: In vivo antihistaminic activity: protection of guinea pigs against histamine aerosol challenge
Parameters: species or system Guinea pigs (Hartley, male)
Conditions: Cavia porcellus, po, 4 hr post dosing, 0.25% histamine aerosol, at least 40 animals

CN(C)CCC=C1c2ccccc2COc2ccccc21 [Doxepin, 11-(3-(dimethylamino)propylidene)-6,11-dihydrodibenz[b,e]oxepin, reference compound]
ED50: > 9 mg/kg
